## scFv variants of Ab-14 (light chain) against a SARS-CoV-2 spike peptide

All variants were tested on one target, the spike HR2 peptide PDVDLGDISGINAS (SARS-CoV-2).

The variants keep the heavy chain, the linker and the frameworks of Ab-14 (scFv order VH, a (GGGGS)3 linker, VL).
VH: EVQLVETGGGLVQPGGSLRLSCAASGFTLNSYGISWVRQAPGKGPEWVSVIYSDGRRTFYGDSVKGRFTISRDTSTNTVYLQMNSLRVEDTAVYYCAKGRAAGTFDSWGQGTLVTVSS
VL: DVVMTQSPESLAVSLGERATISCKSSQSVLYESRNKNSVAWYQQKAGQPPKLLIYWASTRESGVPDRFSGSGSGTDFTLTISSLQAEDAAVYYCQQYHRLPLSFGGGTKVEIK

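The starting antibody came from a phage panning campaign against this peptide. This is the validation round: designs drawn from the data on random variants, tested in the same kind of assay. Group labels follow the data file (Ctrl: baseline library sampled from a position-specific scoring matrix, with some repeated check sequences; GP: Gaussian process model; HC: hill climbing; Gen: genetic algorithm; Gibbs: Gibbs sampling; a sequence that several methods proposed may carry one label only). AlphaSeq pools MATa yeast showing the antibodies with MATalpha yeast showing the peptide. Mating (16 h, 30 °C) was followed by selection of diploids and sequencing of their barcodes. A regression on co-assayed BCL2-family reference pairs converts the normalised counts of each replicate to an apparent Kd. The assay was run in six technical replicates.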

Substitutions are numbered in sequence along the VL above, starting at 1 (not Kabat). Variants here have at most six changes. Values are apparent Kd, the geometric mean of the replicates that gave a signal; lower means stronger binding. A pair that was not seen in any replicate is written "not detected"; this usually means weak binding, but a binder can also be missed.

changes,group,Kd,detected,control signals
S25L S26Q L30D W56N E61L,GP_Gen,1.7 nM,6/6,0/18
S25V S26M V29N W56N T59Q,GP_Gen,1.2 nM,6/6,3/18
S33H W56D A57V,Ctrl,4.4 nM,6/6,1/18
S25Q Y31Q S33W W56D,GP_HC,1.7 nM,6/6,1/18
S25L R34E E61N,Ctrl,3.9 nM,6/6,2/18
V29Q Y31L E32M,Ctrl,not detected,0/6,0/18
S25Y S28G W56Q H98N R99M,Ctrl,4.9 nM,6/6,2/18
S25L S26Q S38N W56S,GP_Gen,320 pM,6/6,0/18
Q27I Q95Y,Ctrl,not detected,0/6,0/18
V29W L30D K36F N37W S38N W56G,GP_HC,760 pM,6/6,1/18
L30F W56G E61L,Ctrl,10 nM,6/6,1/18
S25V L30M W56D,GP_Gen,370 pM,6/6,0/18
S25L V29H L30E W56N E61L,GP_Gen,540 pM,6/6,0/18
K24H S25F S62A,Ctrl,2.0 nM,6/6,3/18
S25V S26E S28G W56D,GP_HC,1.2 nM,6/6,0/18
L30H W56G,GP_HC,2.2 nM,6/6,0/18
Y31D W56H E61S S62R,Ctrl,120 nM,5/6,1/18
V29Q W56H T59K Q95I,Ctrl,not detected,0/6,0/18
S25L K36W S38N W56E,GP_Gen,530 pM,6/6,2/18
S25Q L30D,Ctrl,6.4 nM,6/6,2/18
K24D E32D W56N Y97C,Ctrl,200 nM,4/6,1/18
S25L S26Q S28Q V29T W56H S62E,GP_HC,2.5 nM,6/6,3/18
W56K H98F,Ctrl,4.9 nM,6/6,0/18
S25I V29E W56N T59Q,GP_Gen,1.0 nM,6/6,3/18
Q27I V29Y Y31Q S33K W56E,GP_HC,1.7 nM,6/6,2/18
K24F S25L W56N E61M,GP_Gen,1.4 nM,6/6,1/18
Q27I V29Y R34M W56H A57G T59M,GP_HC,1.5 nM,6/6,0/18
Y31D W56G A57I,Ctrl,1.4 nM,6/6,1/18
S26L V29N W56H S62D R99Q,GP_HC,590 pM,6/6,1/18
S25V S26E L30P W56E,GP_Gen,250 pM,6/6,2/18
Q27S N35Y S62P,Ctrl,94 nM,2/6,3/18
W56Q E61N P101T,Ctrl,24 nM,6/6,1/18
Q27G N35S W56T T59L S62D,Ctrl,88 nM,6/6,0/18
S25Y V29W W56G,GP_HC,370 pM,6/6,2/18
S25L L30D S38A W56N,GP_Gen,1.6 nM,6/6,1/18
S25T S28G K36A,Ctrl,120 nM,5/6,1/18
S25L S26E V29W W56N E61Y,GP_Gen,780 pM,6/6,0/18
V29W E32H,Ctrl,720 nM,3/6,1/18
K24Q N35L,Ctrl,4.9 µM,2/6,2/18
W56S Y97D,Ctrl,40 nM,6/6,0/18
Q95N P101M,Ctrl,not detected,0/6,0/18
S26E Q27G V29E W56N T59M,GP_Gibbs,440 pM,6/6,0/18
S25V S26L L30D S33G W56H S62D,GP_HC,3.0 nM,6/6,0/18
S25V Q27P V29N W56E,GP_Gen,590 pM,6/6,0/18
S25V V29H K36G W56N S62H,GP_Gibbs,990 pM,6/6,0/18
S25L S26Q Q27M V29T W56N,GP_HC,290 pM,6/6,2/18
S25M V29D W56N A57G,GP_Gen,1.6 nM,6/6,0/18
S25L Y31T R34S,Ctrl,6.1 nM,4/6,0/18
S25V V29Y Y31G W56Q Q95T,Ctrl,350 nM,1/6,1/18
S25F S26Q V29W W56N T59Q E61L,GP_Gen,760 pM,6/6,0/18
L30S R34F S103L,Ctrl,54 nM,2/6,1/18
S25L S26K V29T E61L,GP_HC,8.9 nM,6/6,1/18
L30N,Ctrl,170 nM,6/6,1/18
S25I K36E W56F,Ctrl,6.0 nM,6/6,1/18
S25V Q27G V29Q W56N,GP_Gen,340 pM,6/6,1/18
S25L S26Q V29N W56N T59Y,GP_Gen,460 pM,6/6,1/18

The opening 8 entries, copied out:

| changes | group | Kd | detected | control signals |
|---|---|---|---|---|
| S25L S26Q L30D W56N E61L | GP_Gen | 1.7 nM | 6/6 | 0/18 |
| S25V S26M V29N W56N T59Q | GP_Gen | 1.2 nM | 6/6 | 3/18 |
| S33H W56D A57V | Ctrl | 4.4 nM | 6/6 | 1/18 |
| S25Q Y31Q S33W W56D | GP_HC | 1.7 nM | 6/6 | 1/18 |
| S25L R34E E61N | Ctrl | 3.9 nM | 6/6 | 2/18 |
| V29Q Y31L E32M | Ctrl | not detected | 0/6 | 0/18 |
| S25Y S28G W56Q H98N R99M | Ctrl | 4.9 nM | 6/6 | 2/18 |
| S25L S26Q S38N W56S | GP_Gen | 320 pM | 6/6 | 0/18 |

The authors averaged sequences with at least three values out of six and counted those with two or fewer as poor binders. As a blank, each scFv also met three strains without target: over all light chain designs, 4% of these pairings were detected, typically at 430 nM and seldom below 38 nM. Also given: how often the same scFv was detected with the empty control strains. The parent sequence was in this pool as ten entries: three were never detected, three once, and four in most replicates, with averages from 2.2 nM to 240 nM. A sequence measured in both rounds can read differently, since the two assays cover different ranges.

Reference: Li et al. 2023, doi:10.1038/s41467-023-39022-2. File: FLAb, binding data.